Here are results for ten compounds from patent US20020039725A1, “Fish hatching method and apparatus” (published 2002).

Marks after values point to notes of the source that are not given here.

For one data set, the system named is Daphnia magna. The following applies: cited from earlier work; for D. magna 48-h LC50: data from [13], median values of literature citations; for D. magna 48-h LC50, additional data in parentheses: updated AQUIRE literature survey.
Another data set relates to Nothobranchius guentheri. Briefly: Rapid killifish 24 hour acute toxicity test with newly hatched fry. To be noted: for N. guentheri 24-HR LC50 / N. guentheri 24-HR EC50: Example 4 table; for N. guentheri 24-HR LC50: trimmed Spearman-Karber; for N. guentheri 24-HR EC50: trimmed Spearman-Karber (moving average for TNT, SDS); for N. guentheri 24-h EC50: median effective concentration (stress), trimmed Spearman-Karber unless noted (moving-average for 2,4-D, SDS); for N. guentheri 24-h EC50 / N. guentheri 24-h LC50: 25° C.; for N. guentheri 24-h LC50: median lethal concentration (death), fry 24 h post hatch, trimmed Spearman-Karber unless noted.

The next data set has as its system Pimephales promelas. The following applies: cited from earlier work; for P. promelas 96-hr LC50: Example 4 table, mean LC50 from Toussaint et al., 1995; for P. promelas 96-h LC50: data from [13], median values of literature citations.
The subject of another data set is Selenastrum capricornium. The following applies: data from [13], median values of literature citations; cited from earlier work.
In another data set the test system is Mysidopsis bahia. To be noted: cited from earlier work; for M. bahia 96-h LC50: data from [13], median values of literature citations; for M. bahia 96-h LC50, additional data in parentheses: updated AQUIRE literature survey.
A further data set has as its system Ceriodaphnia dubia. To be noted: data from [13], median values of literature citations; cited from earlier work.
Setting [1] is: embryos after 30-d storage at 21 to 25° C.
[2] abbreviates: embryos after 90-d storage at 21 to 25° C.

Regarding cadmium, the “D. magna 48-h LC50” value with Daphnia magna is 0.065 µg/mL. In the data set on Nothobranchius guentheri, the “N. guentheri 24-HR LC50” value amounted to 4.2 µg/mL, the “N. guentheri 24-HR EC50” value was found to be 0.73 mg/L, the “N. guentheri 24-h EC50” value stood at 0.73 µg/mL and the “N. guentheri 24-h LC50” value came to 4.2 µg/mL. Further, in the data set on Pimephales promelas, the “P. promelas 96-hr LC50” value was 2.02 µg/mL and the “P. promelas 96-h LC50” value was 2.0 µg/mL. For the same compound, the “S. capricornium 96-h EC50” value in the data set on Selenastrum capricornium is 0.04 µg/mL. Also, in the data set with Mysidopsis bahia, the “M. bahia 96-h LC50” value was 0.03 µg/mL and the “M. bahia 96-h LC50, additional data in parentheses” value (from here on “M. bahia 96-h LC50, additional data”) was 0.02 µg/mL. Further, the “C. dubia 48-h EC50” value in the data set on Ceriodaphnia dubia was 0.11 µg/mL.

With `CCCCCCCCO`, in the data set on Daphnia magna, the “D. magna 48-h LC50” value was 37 µg/mL. Moreover, in the data set on Nothobranchius guentheri, the “N. guentheri 24-HR LC50” value was found to be 22.8 µg/mL, the “N. guentheri 24-HR EC50” value is recorded as 11.5 mg/L, the “N. guentheri 24-h EC50” value is 12 µg/mL and the “N. guentheri 24-h LC50” value was found to be 23 µg/mL. Further, in the data set on Pimephales promelas, the “P. promelas 96-hr LC50” value is 13.5 µg/mL and the “P. promelas 96-h LC50” value is 13.5 µg/mL. The “P. promelas 96-h LC50, additional data in parentheses” value in the data set with Pimephales promelas (updated AQUIRE literature survey) is recorded as “(13.5)^f mg/L”. The “C. dubia 48-h EC50” value with Ceriodaphnia dubia is 8.7 µg/mL.

Consider `Oc1ccccc1`, for which, in the data set with Nothobranchius guentheri, the “N. guentheri 24-HR EC50” value is given as 44.6 mg/L and the “N. guentheri 24-h EC50” value turned out to be 45 µg/mL. In addition, in the data set with Selenastrum capricornium, the “S. capricornium 96-h EC50” value was 61 µg/mL. Further, in the data set with Ceriodaphnia dubia, the “C. dubia 48-h EC50” value was 4.3 µg/mL.

For the compound copper, in the data set on Daphnia magna, the “D. magna 48-h LC50” value is 0.052 µg/mL and the “D. magna 48-h LC50, additional data in parentheses” value (from here on “D. magna 48-h LC50, additional data”) was “(0.16)^c mg/L”. Besides, in the data set on Nothobranchius guentheri, the “N. guentheri 24-HR LC50” value worked out at 0.039 µg/mL, the “N. guentheri 24-HR EC50” value was 0.033 mg/L, the “N. guentheri 24-h EC50” value was 0.033 µg/mL and the “N. guentheri 24-h LC50” value was determined as 0.039 µg/mL. Further, in the data set on Pimephales promelas, the “P. promelas 96-hr LC50” value is 0.48 µg/mL and the “P. promelas 96-h LC50” value is 0.48 µg/mL. For the same compound, the “S. capricornium 96-h EC50” value in the data set with Selenastrum capricornium was 0.04 µg/mL. Also, in the data set with Mysidopsis bahia, the “M. bahia 96-h LC50” value was 0.16 µg/mL and the “M. bahia 96-h LC50, additional data” value is 0.15 µg/mL. The “C. dubia 48-h EC50” value in the data set on Ceriodaphnia dubia is 0.027 µg/mL.

Take `O=C(O)COc1ccc(Cl)cc1Cl`: the “D. magna 48-h LC50” value with Daphnia magna was 25 µg/mL. Besides, in the data set on Nothobranchius guentheri, the “N. guentheri 24-h EC50” value worked out at 80 µg/mL and the “N. guentheri 24-h LC50” value came to 90 µg/mL. The “P. promelas 96-h LC50” value with Pimephales promelas is 227 µg/mL. Besides, the “S. capricornium 96-h EC50” value with Selenastrum capricornium is 96 µg/mL. Moreover, the “C. dubia 48-h EC50” value with Ceriodaphnia dubia was 236 µg/mL.

For the compound Zinc, in the data set on Daphnia magna, the “D. magna 48-h LC50” value is 0.56 µg/mL and the “D. magna 48-h LC50, additional data” value was “(1.6)^c mg/L”. Besides, in the data set with Nothobranchius guentheri, the “N. guentheri 24-HR LC50” value worked out at 8.6 µg/mL, the “N. guentheri 24-HR EC50” value came to 5.75 mg/L, the “N. guentheri 24-h EC50” value amounted to 5.8 µg/mL and the “N. guentheri 24-h LC50” value came to 8.6 µg/mL. In the data set with Nothobranchius guentheri (setting [1]), the “EC50, zinc reference test” value was 8.0 (6.1-10.5) mg/L and the “LC50, zinc reference test” value is 16.9 (12.5-22.8) mg/L. Moreover, the “EC50, zinc reference test” value with Nothobranchius guentheri (embryos after 60-d storage at 21 to 25° C.) is given as 7.5 (6.0-9.2) mg/L. The “LC50, zinc reference test” value with Nothobranchius guentheri (embryos after 60-d storage at 21 to 25° C., binomial method) was 9.8 (7.0-13.9)^b mg/L. For the same compound, in the data set with Nothobranchius guentheri (setting [2]), the “EC50, zinc reference test” value is reported as 4.6 (4.0-5.3) mg/L and the “LC50, zinc reference test” value was 9.0 (7.9-10.2) mg/L. Besides, in the data set on Pimephales promelas, the “P. promelas 96-hr LC50” value was 2.65 µg/mL and the “P. promelas 96-h LC50” value was 2.65 µg/mL. For the same compound, the “S. capricornium 96-h EC50” value in the data set on Selenastrum capricornium was 0.06 µg/mL. Further, in the data set with Mysidopsis bahia, the “M. bahia 96-h LC50” value is 0.50 µg/mL and the “M. bahia 96-h LC50, additional data” value was 0.30 µg/mL. Besides, the “C. dubia 48-h EC50” value in the data set on Ceriodaphnia dubia is 0.076 µg/mL.

Turning to `Oc1c(Cl)c(Cl)c(Cl)c(Cl)c1Cl`, the “S. capricornium 96-h EC50” value in the data set on Selenastrum capricornium was 0.34 µg/mL. Besides, the “C. dubia 48-h EC50” value in the data set with Ceriodaphnia dubia is 0.28 µg/mL.

In the case of Unionized ammonia, the “D. magna 48-h LC50” value in the data set on Daphnia magna was 1.5 µg/mL. In the data set with Nothobranchius guentheri, the “N. guentheri 24-HR LC50” value was found to be 1.15 µg/mL, the “N. guentheri 24-HR EC50” value was 0.57 mg/L, the “N. guentheri 24-h EC50” value was 0.57 µg/mL and the “N. guentheri 24-h LC50” value stood at 1.2 µg/mL. Moreover, in the data set on Pimephales promelas, the “P. promelas 96-hr LC50” value is 1.59 µg/mL and the “P. promelas 96-h LC50” value is 1.6 µg/mL. In the data set on Mysidopsis bahia, the “M. bahia 96-h LC50” value was 1.4 µg/mL. Moreover, in the data set with Ceriodaphnia dubia, the “C. dubia 48-h EC50” value was 2.2 µg/mL.

Take `CCCCCCCCCCCCOS(=O)(=O)[O-].[Na+]`: in the data set with Daphnia magna, the “D. magna 48-h LC50” value was 9.6 µg/mL and the “D. magna 48-h LC50, additional data” value was “(25)^l mg/L”. In the data set with Nothobranchius guentheri, the “N. guentheri 24-HR LC50” value was found to be 39.5 µg/mL, the “N. guentheri 24-HR EC50” value was 31.11^c mg/L, the “N. guentheri 24-h EC50” value was 31 µg/mL and the “N. guentheri 24-h LC50” value is 40 µg/mL. Further, in the data set on Pimephales promelas, the “P. promelas 96-hr LC50” value was 8.0 µg/mL and the “P. promelas 96-h LC50” value was 8.0 µg/mL. The “S. capricornium 96-h EC50” value in the data set on Selenastrum capricornium is 3.8 µg/mL. For the same compound, the “M. bahia 96-h LC50” value with Mysidopsis bahia was 6.6 µg/mL. Also, in the data set with Ceriodaphnia dubia, the “C. dubia 48-h EC50” value is 48 µg/mL.

With `CCOC(=O)CC(SP(=S)(OC)OC)C(=O)OCC` (stereo not shown), the “D. magna 48-h LC50” value in the data set with Daphnia magna was 0.001 µg/mL. In addition, in the data set with Nothobranchius guentheri, the “N. guentheri 24-HR LC50” value came to 6.94 µg/mL, the “N. guentheri 24-HR EC50” value came to 2.91 mg/L, the “N. guentheri 24-h EC50” value amounted to 2.9 µg/mL and the “N. guentheri 24-h LC50” value came out at 6.9 µg/mL. Besides, in the data set with Pimephales promelas, the “P. promelas 96-hr LC50” value was 11.8 µg/mL and the “P. promelas 96-h LC50” value is 12 µg/mL. Moreover, in the data set with Mysidopsis bahia, the “M. bahia 96-h LC50” value was 4.2 µg/mL and the “M. bahia 96-h LC50, additional data” value was 0.01 µg/mL.
